Tested on: inflamed lungs of rats

## Brc1c(NC2=NCCN2)ccc2nccnc12.O=C(O)C(O)C(O)C(=O)O [brimonidine, 5-bromo-6-(2-imidazolin-2-ylamino)quinoxaline D-tartrate]
After last treatment
  final pre/post-suctioning change in resistance, saline versus brimonidine group: significantly greater in the saline group than the brimonidine group (P=0.006)
After the 400 and 800 μg/ml doses
  post-treatment resistances, saline group compared with brimonidine group: significantly higher (P=0.03) in the saline group
Any of the time points
  post-suctioning resistances, difference between saline and brimonidine groups: not a significant difference between groups
rats, aerosol 200, 400, 800 μg/ml, 10 minutes after each treatment, FIG. 4
  increase in central airway resistance during post-treatment monitoring period: little increase in resistance
